Experimental findings from patent US20250074871A1, “PHENETHYLAMINES AND METHODS OF PREPARATION THEREOF” (priority 2022, published 2025) are described below.

Chains of the proteins cited; added tags and fusions are not shown.
UniProt P41595, whole entry: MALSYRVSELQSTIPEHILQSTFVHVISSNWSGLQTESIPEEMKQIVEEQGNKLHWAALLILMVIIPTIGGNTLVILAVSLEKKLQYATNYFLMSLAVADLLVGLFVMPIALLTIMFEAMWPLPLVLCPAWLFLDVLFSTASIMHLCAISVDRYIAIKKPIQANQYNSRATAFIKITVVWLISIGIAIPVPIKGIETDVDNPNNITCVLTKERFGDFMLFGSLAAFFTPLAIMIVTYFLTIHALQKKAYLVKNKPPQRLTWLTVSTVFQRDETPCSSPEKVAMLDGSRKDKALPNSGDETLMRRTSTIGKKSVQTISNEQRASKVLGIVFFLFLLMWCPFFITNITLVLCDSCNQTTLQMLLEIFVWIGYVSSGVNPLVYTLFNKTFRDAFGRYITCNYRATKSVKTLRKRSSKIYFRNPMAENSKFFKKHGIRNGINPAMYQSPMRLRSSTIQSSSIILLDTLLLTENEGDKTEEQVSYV

The target in this test is T1, 5-HT2B receptor (Homo sapiens, UniProt P41595).
T1 construct: expressed in transfected cells; host or cells: HEK293T
Kind of test: 5-HT2B Gq dissociation BRET functional assay. The class given is cell-based. Particulars: 5-HT2B EC50, nM, Table 3 panel.

`CN(C)CCc1c[nH]c2cccc(O)c12` [psilocin, reference compound] gave an EC50 of 2.1 nM.
